In the assay the test system is MJ. The assay is described as follows: Apoptosis panel 24 h: MJ. It counts as cell-based, human. The following applies: MJ (TCL), with cross linking antibody. The procedure: For a subset of cells (see Table 4), a cross linking antibody (goat anti-human IgG Fc specific polyclonal Ab) was added at six-fold excess. For all cell types, camptothecin (CPT), a cytotoxic quinoline alkaloid which inhibits the DNA enzyme topoisomerase I, was added at 10 μM for 24 hours at 37° C. as a positive control for apoptosis induction. Cells were then resuspended in Annexin V binding buffer (10 mM HEPES at pH 7.4, 140 mM NaCl, 2.5 mM CaCl2) and stained with Annexin V-APC and 7-Aminoactinomycin D (7-AAD) or propidium iodide (PI). Cells were washed, resuspended in Annexin V binding buffer, and analyzed by flow cytometry (FACSArray system, BD Biosciences, San Jose, Calif.) and FlowJo software (Treestar, Inc., San Carlos, Calif.).

“BMS-936564: fully human anti-CXCR4 monoclonal antibody; VH SEQ ID NO: 25, VL SEQ ID NO: 29”: the “Adjusted Percent Apoptosis” value was determined as 9%.

These data come from patent publication US10428151B2, “Treatment of hematologic malignancies with an anti-CXCR4 antibody” (BRISTOL-MYERS SQUIBB COMPANY, priority 2011, dated 2019).
